# Test results from patent US4636513A, “Isoxazole derivatives and medicaments containing these compounds” (Hoechst Aktiengesellschaft, priority 1984, dated 1987).
# “Also recorded” adds a separate entry of the source.
# Tests used:
# in vivo = assay: in vivo; parameters: species or system rat (male and female Wistar); conditions: po, rat, administered orally, read-out: Toxicity LD50
# Protocol: The animals were used in the experiment after being fasted for about 18 hours and only received food again five hours after administration of the product. After a three-week observation period, they were sacrificed with chloroform and autopsied. The organs were assessed macroscopically. The test compounds were dissolved in 1% strength CMC suspension and administered to the rats through a stomach tube in a volume of 5 ml/kg BW.
# [1] = Modified Randall-Selitto hyperalgesia test on rats (analgesic action); conditions: rat, in vivo, po
# Protocol: (§1) (b) Modified Randall-Selitto hyperalgesia test on rats in accordance with the method of Atkinson et al., J. Pharm. Pharmac.
# (§2) Male Sprague-Dawley rats with a body weight of 200 to 300 g were used as the experimental animals. The experimental animals were given a subplantar injection of 0.2 ml of brewer's yeast suspension (40% of yeast in 0.9% strength NaCl solution) into the left hind paw under mild ether anaesthesia. After 5 hours, the gait of the animals over a metal grating was evaluated according to the following scale:
# (§3) The evaluation was effected by determining the percentage of animals evaluated with stage 1 or 0.5, two animals given 0.5 being regarded as showing an analgesic effect.
# (§4) The test substances were administered orally, to animals which had been fasted for 15 hours, in CMC suspension in a volume of 10 ml/kg BW two hours before the evaluation of the animals. In order to exclude subjective influences, the evaluation was performed by two people independently of one another and without knowledge of the pretreatment of the animals (n=10/dose). The ED50 values were determined with the aid of linear regression in accordance with the method of Fieller and Sidak.
# rats = assay: as above; conditions: versus comparison products, at ED50 of 85 mg/kg, rat, oral; 85 mg/kg
# Protocol: as §1, §2, §3, §4
# [2] = Acetic acid extension test on mice (analgesic action); conditions: mouse, in vivo, po
# Protocol: (§5) (a) Acetic acid extension test on mice in accordance with the method of R. Koster et al., Fed. Prod.
# (§6) Female mice of a N.M.R.I. strain with a body weight (BW) of between 21 and 28 g were used as the experimental animals. Groups of in each case 12 animals received 0.1 ml/10 g BW of a 0.6% strength acetic acid solution, injected intraperitoneally. The test substances were administered 30 minutes beforehand. Immediately after the acetic acid injection, the animals were placed individually and the typical extension movements occurring within 15 minutes were counted, these consisting of brief flexing of the abdominal muscles with withdrawal of the sides and subsequent extension of the rear of the body and of at least one rear extremity.
# (§7) The test substances were administered orally in a volume of 10 ml/kg BW in 1% strength aqueous carboxymethylcellulose (CMC) suspension.
# mice = assay: as above; conditions: versus the two comparison products, oral
# Protocol: as §5, §6, §7
SMILES,LD50 at 504 h (in vivo) [mg/kg],selectivity ratio [1],"Relative analgesic activity, Randall-Selitto (rats)",selectivity ratio [2],Relative effectiveness in the pain test on mice (mice)
"Cc1oncc1C(=O)N1CCCCC1 [Example 1, N-(5-Methyl-4-isoxazolylcarbonyl)-piperidine]",1240,14.6,twice as active as acetylsalicylic acid; also recorded: four times as powerful than Paracetamol,27.6,at least three times that of the two comparison products
"CC(=O)Nc1ccc(O)cc1 [Paracetamol, reference compound]",1940,,,,
